Experimental data: article PMC11487712, “Assessment of the Interaction of Acetylcholinesterase Binding with Bioactive Compounds from Coffee and Coffee Fractions Digested In Vitro in the Gastrointestinal Tract” (2024)

By UniProt entry, the sequences of proteins in these tests, tags left out. Where a name states a change or a piece, a line headed by the entry shows the natural chain unless it says otherwise.
UniProt O42275: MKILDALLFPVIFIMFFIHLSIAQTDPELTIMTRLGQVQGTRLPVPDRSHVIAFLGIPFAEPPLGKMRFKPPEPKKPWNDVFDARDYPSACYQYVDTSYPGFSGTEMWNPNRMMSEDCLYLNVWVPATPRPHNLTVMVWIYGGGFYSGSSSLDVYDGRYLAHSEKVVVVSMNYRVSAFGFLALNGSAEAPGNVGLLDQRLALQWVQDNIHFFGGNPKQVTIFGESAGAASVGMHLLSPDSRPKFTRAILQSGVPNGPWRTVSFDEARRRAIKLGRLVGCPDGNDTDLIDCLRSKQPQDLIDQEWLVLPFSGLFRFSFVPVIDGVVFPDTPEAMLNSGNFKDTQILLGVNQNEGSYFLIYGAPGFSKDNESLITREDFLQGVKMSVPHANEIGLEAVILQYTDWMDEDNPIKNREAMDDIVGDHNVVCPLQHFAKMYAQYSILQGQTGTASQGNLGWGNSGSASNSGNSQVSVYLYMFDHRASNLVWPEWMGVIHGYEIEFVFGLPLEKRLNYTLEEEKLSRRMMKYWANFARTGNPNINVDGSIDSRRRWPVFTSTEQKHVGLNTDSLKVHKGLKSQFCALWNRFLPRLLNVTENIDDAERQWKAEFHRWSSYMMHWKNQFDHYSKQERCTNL

Target: Acetylcholinesterase (AChE) from Electrophorus electricus (Electrophorus electricus, UniProt O42275)
Assay: isothermal titration calorimetry, Michaelis-Menten
Details: read-out: Ki (μmol/L) KM Ach 48.5 μmol/L; 36.6 °C; enzyme in ultrapure water; KM printed only in the header of the Ki column

acetylcholine was tested, and the Km was 48.5 µmol/L.
